Experimental findings from publication PMC4492447 (Journal of medicinal chemistry, 2012) are described below.

Sequences of proteins named here, by UniProt entry; tags and fusion partners are left off.
UniProt P21554, whole entry: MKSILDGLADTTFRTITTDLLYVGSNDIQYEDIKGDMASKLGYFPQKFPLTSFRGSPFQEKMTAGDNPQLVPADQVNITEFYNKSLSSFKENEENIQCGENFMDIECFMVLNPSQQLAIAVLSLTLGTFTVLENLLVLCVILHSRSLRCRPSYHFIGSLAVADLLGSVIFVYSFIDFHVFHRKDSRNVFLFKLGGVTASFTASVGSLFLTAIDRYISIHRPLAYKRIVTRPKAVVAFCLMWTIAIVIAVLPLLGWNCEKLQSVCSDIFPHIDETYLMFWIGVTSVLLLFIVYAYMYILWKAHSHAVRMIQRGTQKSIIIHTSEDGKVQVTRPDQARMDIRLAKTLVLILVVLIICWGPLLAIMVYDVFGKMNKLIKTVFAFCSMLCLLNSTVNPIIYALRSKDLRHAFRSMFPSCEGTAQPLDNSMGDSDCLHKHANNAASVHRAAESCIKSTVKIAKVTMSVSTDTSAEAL

Molecules are shown by their SMILES. Several values for one entry are separate records, joined by “and”; a condition that tells them apart may be missing. Equal entries are not always repeated.

The target in experiment [1] is T1, CB1 (Homo sapiens, UniProt P21554). It is filed as cell-based.
In experiment [2] the target is T1, CB1. It is filed as binding. To be noted: selectivity, [3H]CP55940 displacement.

In the case of `Clc1ccc(-n2c(-c3ccccc3Cl)nc3c(N[C@H]4CCCNC4)ncnc32)cc1` [Compound 16b, 8-(2-Chlorophenyl)-9-(4-chlorophenyl)-N-[(3S)-piperidin-3-yl]-9H-purin-6-amine], the Kb on CB1 [1] turned out to be 8.41 µM. On the same count and under the same terms, for `CC(C)(C)OC(=O)N1CCC[C@@H](Nc2ncnc3c2nc(-c2ccccc2Cl)n3-c2ccc(Cl)cc2)C1` [Compound 15a, tert-Butyl (3R)-3-{[8-(2-chlorophenyl)-9-(4-chlorophenyl)-9H-purin-6-yl]amino}piperidine-1-carboxylate] the value was 0.326 µM; for `Clc1ccc(-n2c(-c3ccccc3Cl)nc3c(N[C@@H]4CCCNC4)ncnc32)cc1` [Compound 15b, 8-(2-Chlorophenyl)-9-(4-chlorophenyl)-N-[(3R)-piperidin-3-yl]-9H-purin-6-amine], 5.55 µM; for `CC(C)(C)OC(=O)N1CCC[C@H](Nc2ncnc3c2nc(-c2ccccc2Cl)n3-c2ccc(Cl)cc2)C1` [Compound 16a, tert-Butyl (3S)-3-{[8-(2-chlorophenyl)-9-(4-chlorophenyl)-9H-purin-6-yl]amino}piperidine-1-carboxylate], 3.93 µM. On to `CCCCNC(=O)NC1(c2ccccc2)CCN(c2ncnc3c2nc(-c2ccccc2Cl)n3-c2ccc(Cl)cc2)CC1` [Compound 13e, 3-Butyl-1-{1-[8-(2-chlorophenyl)-9-(4-chlorophenyl)-9H-purin-6-yl]-4-phenylpiperidin-4-yl}urea], for which the “CB2/CB1 Ki ratio” value on CB1 [2] is 74 and >74.
